Measurements published in patent US20080233109A1 (IMMUNOKICK INCORPORATION, published 2008).

Target: T1, [^35S]-labeled MCM3 synthesized in vitro (UniProt P25206 1-812, limits assumed, radio-labeled with ^35S-methionine)
T1 construct: also called [^35S]-MCM3; in vitro translated MCM3
T1 sequence (looked up): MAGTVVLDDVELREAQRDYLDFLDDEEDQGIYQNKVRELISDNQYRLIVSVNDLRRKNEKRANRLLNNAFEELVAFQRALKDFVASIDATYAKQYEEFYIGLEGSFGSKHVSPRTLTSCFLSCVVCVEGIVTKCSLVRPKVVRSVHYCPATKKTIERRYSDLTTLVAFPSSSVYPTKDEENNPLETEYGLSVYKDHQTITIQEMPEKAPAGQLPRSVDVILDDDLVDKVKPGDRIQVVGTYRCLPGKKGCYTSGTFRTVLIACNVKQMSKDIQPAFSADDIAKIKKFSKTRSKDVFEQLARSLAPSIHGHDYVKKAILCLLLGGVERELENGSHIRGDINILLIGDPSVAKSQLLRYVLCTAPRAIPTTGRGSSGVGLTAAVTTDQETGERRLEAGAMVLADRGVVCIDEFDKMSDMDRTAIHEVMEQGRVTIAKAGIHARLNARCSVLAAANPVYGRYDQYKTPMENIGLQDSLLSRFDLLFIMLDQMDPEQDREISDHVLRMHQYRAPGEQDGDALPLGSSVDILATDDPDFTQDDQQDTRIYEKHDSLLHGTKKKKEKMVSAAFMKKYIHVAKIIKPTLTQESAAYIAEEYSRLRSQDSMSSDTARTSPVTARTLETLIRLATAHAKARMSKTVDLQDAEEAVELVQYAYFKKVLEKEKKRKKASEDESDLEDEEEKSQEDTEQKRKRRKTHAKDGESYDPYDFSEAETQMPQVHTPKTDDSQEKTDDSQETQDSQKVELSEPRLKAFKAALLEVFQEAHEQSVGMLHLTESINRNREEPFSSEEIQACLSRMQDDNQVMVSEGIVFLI
Test: GST pull-down of in vitro translated [35S]-MCM3, autoradiography

binding result: no binding
B1: GST alone (negative control) (other, UniProt P08515 1-218, looked up)
chain: MSPILGYWKIKGLVQPTRLLLEYLEEKYEEHLYERDEGDKWRNKKFELGLEFPNLPYYIDGDVKLTQSMAIIRYIADKHNMLGGCPKERAEISMLEGAVLDIRYGVSRIAYSKDFETLKVDFLSKLPEMLKMFEDRLCHKTYLNGDHVTHPDFMLYDALDVVLYMDPMCLDAFPKLVCFKKRIEAIPQIDKYLKSSKYIAWPLQGWQATFGGGDHPPK
notes: Negative control in the pull-down with in vitro translated MCM3
